# Antibody variant affinities, Ab-14 light chain, assay B

Target: peptide PDVDLGDISGINAS, taken from heptad repeat 2 (HR2) of SARS-CoV-2 spike.

The variants keep the heavy chain, the linker and the frameworks of Ab-14 (scFv order VH, a 15-residue (Gly4Ser)3 linker, VL).
VH: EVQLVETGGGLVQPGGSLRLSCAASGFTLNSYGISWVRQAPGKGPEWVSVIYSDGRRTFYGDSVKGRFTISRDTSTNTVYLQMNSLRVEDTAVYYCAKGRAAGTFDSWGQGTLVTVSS
VL: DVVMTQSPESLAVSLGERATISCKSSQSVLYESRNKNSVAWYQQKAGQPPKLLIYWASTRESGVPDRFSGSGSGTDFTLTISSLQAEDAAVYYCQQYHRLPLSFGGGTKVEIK

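Phage display of a naive human antibody library on the peptide gave the parent. This is the validation round: designs drawn from the data on random variants, tested in the same kind of assay. Group labels follow the data file (Ctrl: baseline library sampled from a position-specific scoring matrix, with some repeated check sequences; GP: Gaussian process model; Gen: genetic algorithm; a sequence that several methods proposed may carry one label only). The scFvs were displayed on barcoded MATa yeast, the peptide on MATalpha yeast. Binding brings cells together so that they mate, and sequencing counts the barcode pairs among the diploids. Each replicate has its own calibration line, from reference interactions of the BCL2 family. Mating was done six times.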

The parent's light chain CDRs are KSSQSVLYESRNKNSVA, WASTRES, QQYHRLPLS; each variant's own CDRs replace them letter for letter.
Numbers give log10(Kd / nM), so 0 is 1 nM and 3 is 1 µM. Smaller is tighter.
An entry "n.d." has no value in the source: the pair was not observed among the diploids in that replicate. This suggests poor binding but is not conclusive.

| # | CDR-L1 | CDR-L2 | CDR-L3 | group | log10 Kd (nM) by replicate | empty controls |
|---|---|---|---|---|---|---|
| 1 | KSQQSVLYESRNANSVA | WAATRES | PQQERLPLS | Ctrl | n.d. n.d. n.d. n.d. 2.19 n.d. | 0/18 |
| 2 | KTSQSVLYESRNPNSVA | WASTRES | QQKHREPLS | Ctrl | 1.81 n.d. n.d. 1.62 2.10 n.d. | 1/18 (1.99) |
| 3 | ASSISVLYESRNKNSVA | WASTRES | MQYHRLPLH | Ctrl | n.d. n.d. n.d. n.d. n.d. n.d. | 0/18 |
| 4 | KSSQSVLYEFRNKNSVA | GASTRES | QQYHRMPLS | Ctrl | 1.19 1.29 1.32 1.43 1.91 1.31 | 1/18 (2.06) |
| 5 | KSSQSVEYERRTKNSVA | SESTRES | QQYMRLLLS | Ctrl | n.d. n.d. n.d. n.d. n.d. n.d. | 0/18 |
| 6 | MSSQSVLYESRNKNSVA | GASIRES | QQYHRLPLS | Ctrl | 0.28 0.12 -0.06 0.07 0.10 0.10 | 0/18 |
| 7 | KSSQSVLYESNNKNSVA | WASTRES | QQYHRLPVS | Ctrl | 2.15 2.03 1.37 2.07 2.51 2.44 | 0/18 |
| 8 | KSSQSVWAESFNKNSVA | WASYRES | QQYHRLPLS | Ctrl | n.d. 1.63 0.60 1.37 2.15 1.76 | 0/18 |
| 9 | KLSQSVLYESRNKNSVA | WASLRES | QQYHHLPLS | Ctrl | 1.28 2.64 2.08 2.42 1.51 3.22 | 0/18 |
| 10 | KSSISVLKESRNKNSVA | WETTREQ | QAYHRLPLS | Ctrl | n.d. n.d. n.d. n.d. n.d. n.d. | 0/18 |
| 11 | KSSQSVLYEMRNVDSVA | DASTHAS | QQYHRLPLS | Ctrl | 0.89 0.91 0.59 0.67 0.99 0.80 | 1/18 (2.83) |
| 12 | KWSQSVLYESTNFNSVA | NASTRES | QQYHRLPLS | Ctrl | 0.08 0.11 -0.12 -0.18 0.00 0.13 | 1/18 (2.74) |
| 13 | KYSQSVLYESRNKNSVA | WASTRES | QQYPRLPLS | Ctrl | 1.13 1.35 1.37 0.91 0.89 1.39 | 2/18 (2.95) |
| 14 | KSAQSVLYESNNKNSVA | WASTRES | QQYHRLPLS | Ctrl | 1.50 0.29 n.d. 1.60 1.58 n.d. | 0/18 |
| 15 | KSSQSVLTESRNKNSVA | NDSTRES | QQYHRLPLS | Ctrl | 0.99 0.77 0.98 1.41 0.86 1.15 | 1/18 (3.22) |
| 16 | KSSQSVLYESRNKNSVA | RASTRES | YQYHRLPLS | Ctrl | n.d. n.d. n.d. n.d. n.d. n.d. | 0/18 |
| 17 | KSSQSVLYESRNKNSVA | FASTRIS | QQYHRLPLS | Ctrl | n.d. n.d. n.d. 2.02 n.d. n.d. | 0/18 |
| 18 | KSSQSVPYESRNKNSVA | MASTRES | QTYHRLPLS | Ctrl | 0.99 1.31 1.24 1.20 0.95 1.51 | 0/18 |
| 19 | KSSQSVLYESRNKNSVA | EASTRES | QQKMRLPLS | Ctrl | 0.14 1.51 1.26 1.24 0.49 0.57 | 0/18 |
| 20 | KSSQSVLYESRNKNSVA | WASTRES | QQYYRLPLS | Ctrl | n.d. 1.77 n.d. 2.35 2.15 2.45 | 0/18 |
| 21 | KSSGSVLYESRNKNHVA | WASTRES | QQYHRLPLS | Ctrl | n.d. n.d. n.d. n.d. n.d. 2.27 | 0/18 |
| 22 | KSSQKVLYESRNKNSVA | WASTRES | QQYARLPLV | Ctrl | 1.39 n.d. n.d. n.d. 1.51 n.d. | 1/18 (1.73) |
| 23 | KYSQSVVYDSRFKNSVA | WASTRES | QQYHRLPLF | Ctrl | n.d. n.d. 1.99 n.d. 1.38 2.62 | 2/18 (2.28) |
| 24 | KSSQSVLYESKNKNSVA | KAHTRMS | QQCHRLPLS | Ctrl | n.d. 1.93 3.04 3.54 4.29 3.26 | 1/18 (2.40) |
| 25 | KSSQSVLYDSRNKNSVA | HASTRES | QQYHRLPLS | Ctrl | 1.21 1.33 1.35 1.55 1.09 1.72 | 0/18 |
| 26 | KWSQSVLYESTNKNSVA | WASTRES | QQYHRDPLS | Ctrl | 2.75 n.d. 1.37 1.58 1.37 1.25 | 0/18 |
| 27 | KMSQSVLYESNNKNSVA | AASTRES | QQYHQLPLS | Ctrl | 0.07 0.36 0.24 0.07 0.21 0.26 | 1/18 (2.49) |
| 28 | KSSHSVWYESQNKNSVA | WASTRES | QQVHRLPLS | Ctrl | n.d. n.d. n.d. n.d. n.d. n.d. | 1/18 (2.55) |
| 29 | KSSVSDLYESRNKNSVA | WASTRES | QQYHRLPLS | Ctrl | 1.47 1.23 1.61 1.17 1.70 1.84 | 1/18 (2.49) |
| 30 | KISQSVLYESRNQNSVA | WASTRLS | QQYHRLPLS | Ctrl | n.d. 2.08 2.05 2.11 3.06 2.20 | 0/18 |
| 31 | KSSQSGLYESRNKNSVA | EASTRES | QQYHRLPLS | Ctrl+GP_Gen | -0.34 -0.34 -0.49 -0.51 -0.44 -0.27; 0.14 -0.16 0.08 -0.23 -0.02 0.08 | 2/36 (3.44) |
| 32 | KSSGSVLYESRNKNSVA | NASMRES | QQYHRLLLS | Ctrl | 0.79 0.81 1.29 0.43 1.47 0.97 | 0/18 |
| 33 | KRSQSVLYESTNKNSVA | WASTRES | QQYHRLPLS | Ctrl | n.d. 0.82 1.60 n.d. n.d. 2.26 | 0/18 |
| 34 | KSSQSVLYESDNKNSVA | WASTRER | QQYHQLPLS | Ctrl | 1.07 1.42 1.12 0.72 0.92 2.17 | 1/18 (3.03) |
| 35 | KSSQSVLGESRNKNSLA | WTSTRHS | QQYHRLPGS | Ctrl | n.d. n.d. n.d. n.d. n.d. n.d. | 1/18 (1.74) |
| 36 | KFSQFVLYESRNKNSVA | WASTRES | QQYHRWPLS | Ctrl | n.d. n.d. n.d. n.d. n.d. n.d. | 1/18 (2.47) |
| 37 | KSSDSVLYEHRNKNSVA | WASTRES | QQYHRLPLS | Ctrl | n.d. 3.45 n.d. n.d. 4.24 2.45 | 0/18 |
| 38 | KSSQSVLTESRTKNSVA | EASTRQS | QQYVRLPLS | Ctrl | 0.52 -0.05 0.40 -0.56 -0.11 0.46 | 0/18 |
| 39 | KYEQSVLYESRNCNSVA | FASTRES | QQYHRLPLS | Ctrl | 1.70 4.35 2.61 1.85 2.21 3.03 | 2/18 (2.53) |
| 40 | KSSQSVLYESRNKNSVA | WASTGES | QQYHRLPLS | Ctrl | n.d. n.d. n.d. n.d. n.d. n.d. | 0/18 |

The first 4 entries again:

| CDR-L1 | CDR-L2 | CDR-L3 | group | log10 Kd (nM) by replicate | empty controls |
|---|---|---|---|---|---|
| KSQQSVLYESRNANSVA | WAATRES | PQQERLPLS | Ctrl | n.d. n.d. n.d. n.d. 2.19 n.d. | 0/18 |
| KTSQSVLYESRNPNSVA | WASTRES | QQKHREPLS | Ctrl | 1.81 n.d. n.d. 1.62 2.10 n.d. | 1/18 (1.99) |
| ASSISVLYESRNKNSVA | WASTRES | MQYHRLPLH | Ctrl | n.d. n.d. n.d. n.d. n.d. n.d. | 0/18 |
| KSSQSVLYEFRNKNSVA | GASTRES | QQYHRMPLS | Ctrl | 1.19 1.29 1.32 1.43 1.91 1.31 | 1/18 (2.06) |

Empty control strains, which show no peptide, gave a signal in 4% of pairings with all light chain designs; the median was 2.64 and 95% of these signals were weaker than 1.59. No background was subtracted. The control count says in how many pairings with the empty strains this scFv gave a signal, with their mean in brackets.
Values of this round are not directly comparable with the first-round values of the same sequences.
In the paper, a design with two or fewer of six values counts as a poor binder.
A sequence that the file lists under several names has all its replicates listed entry by entry, parted by semicolons.

From the AlphaSeq antibody data of Li et al. 2023 (doi:10.1038/s41467-023-39022-2), copy in the FLAb collection.